Data from patent US20150011566A1, “N-PHENYLPIPERAZINE DERIVATIVES THAT ARE ANTAGONISTS OF A1A, A1D ADRENOCEPTORS AND 5-HT1A RECEPTORS FOR THE TREATMENT OF BENIGN PROSTATE HYPERPLASIA, PHARMACEUTICAL COMPOSITIONS CONTAINING THE SAME” (UNIVERSIDADE FEDERAL DO RIO DE JANEIRO-UFRJ, priority 2012, published 2015).

Chains of the proteins cited; added tags and fusions are not shown.
UniProt P19327, whole entry: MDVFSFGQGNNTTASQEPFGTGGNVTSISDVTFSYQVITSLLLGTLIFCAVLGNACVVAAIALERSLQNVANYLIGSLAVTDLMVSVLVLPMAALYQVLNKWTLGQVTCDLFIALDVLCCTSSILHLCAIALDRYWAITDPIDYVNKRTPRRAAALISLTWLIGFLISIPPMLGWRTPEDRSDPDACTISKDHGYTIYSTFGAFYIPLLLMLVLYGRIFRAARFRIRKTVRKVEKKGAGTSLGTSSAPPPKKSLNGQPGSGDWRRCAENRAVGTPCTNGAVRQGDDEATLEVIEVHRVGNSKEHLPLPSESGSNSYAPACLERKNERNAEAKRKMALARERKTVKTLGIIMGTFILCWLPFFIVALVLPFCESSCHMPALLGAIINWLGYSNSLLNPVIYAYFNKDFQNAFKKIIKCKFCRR

Key:
[1] = molecular target: T1, 5-HT1A receptors (Rattus norvegicus, UniProt P19327); assay: Binding of [3H]-8-OH-DPAT to 5-HT1A receptors (rat hippocampus membranes); conditions: Ki high (nM), Table 13; agonist radioligand [3H] 8-OH-DPAT
T1 construct: Intrinsic Activity at Native 5-HT1A Receptors; from tissue; host or cells: rat hippocampus membranes
Experimental: (§1) Membrane preparations of rat hippocampus according to previously described by HALL et al (1985) and PEROUTKA (1986) were performed. The homogenization and centrifugation steps were performed identically to that described above for receptors α2A and 5-HT2A receptors.
(§2) The binding assays for the 5-HT1A receptors were performed as described previously in the literature and previously standardized in the laboratory through saturation experiments. […] (solvent for dilution of LDT's) for the determination of total binding, or 50 μL non-radioative serotonin at 10 μM to determine the non-specific binding (final volume of 500 μL). Assays were performed in triplicate. […] Assays were performed in triplicate.
(§3) After the incubation period, the reaction was stopped by adding 4 ml of ice-cold solution containing 5 mM Tris (pH 7.4), followed by vacuum filtration on glass fiber filter (GMF 3, Filtrak®) previously soaked with solution 0.5% polyethylenoimine. The filters were washed three times with 4 mL of ice-cold solution containing 5 mM Tris (pH 7.4) under vacuum to remove all free radioligand. […] The radioactivity retained on the filters was then determined in a liquid scintillation counter (Packard Tri-Carb 1600 TR). […] For these receptors were also determined the […] and Ki parameters.

[2] = molecular target: T1, 5-HT1A receptors; assay: Binding of [3H]p-MPPF with GTP to 5-HT1A receptors; intrinsic activity (Ki low/Ki high); conditions: read-out: Ki low; Table 13; antagonist radioligand [3H] p-MPPF in the presence of GTP
Experimental: as §1, §2
as §3, with “parameters. […]” for “parameters.”

Compound `Cl.NCCc1c[nH]c2ccc(O)cc12` [5-HT, 5-hydroxytryptamine hydrochloride] has a Ki [1] of 2.46 nM and a Ki [2] of 189 nM.
